From US20250243180A1, “TARGETED PROTEIN DEGRADATION” (Monte Rosa Therapeutics AG, priority 2023, published 2025)
Read-outs that look alike come from different tables or passages of the source.

By UniProt entry, the sequences of proteins in these tests, tags left out. Residues count along the entry.
UniProt Q96SW2, whole entry: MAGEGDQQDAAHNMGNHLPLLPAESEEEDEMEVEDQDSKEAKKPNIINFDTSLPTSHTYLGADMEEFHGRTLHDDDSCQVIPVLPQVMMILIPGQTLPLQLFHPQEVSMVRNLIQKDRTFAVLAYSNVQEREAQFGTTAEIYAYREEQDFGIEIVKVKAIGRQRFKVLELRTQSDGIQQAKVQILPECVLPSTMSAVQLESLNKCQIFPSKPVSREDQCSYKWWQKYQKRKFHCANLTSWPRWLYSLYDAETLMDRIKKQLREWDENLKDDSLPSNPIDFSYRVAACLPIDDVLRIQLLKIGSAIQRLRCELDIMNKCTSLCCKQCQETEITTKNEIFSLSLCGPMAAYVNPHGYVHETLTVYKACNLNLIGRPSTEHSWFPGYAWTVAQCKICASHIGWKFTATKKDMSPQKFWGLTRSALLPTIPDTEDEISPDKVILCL
UniProt Q8TDX7, whole entry: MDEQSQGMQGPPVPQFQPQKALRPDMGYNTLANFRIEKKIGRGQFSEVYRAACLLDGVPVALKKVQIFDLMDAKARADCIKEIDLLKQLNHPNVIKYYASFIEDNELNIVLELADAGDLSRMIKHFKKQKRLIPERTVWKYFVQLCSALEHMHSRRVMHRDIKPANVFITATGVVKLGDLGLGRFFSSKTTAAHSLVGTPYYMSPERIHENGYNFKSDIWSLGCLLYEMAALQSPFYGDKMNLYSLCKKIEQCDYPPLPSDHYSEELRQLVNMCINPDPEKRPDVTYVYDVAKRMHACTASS
UniProt Q16531, 2-1140 partner limits assumed: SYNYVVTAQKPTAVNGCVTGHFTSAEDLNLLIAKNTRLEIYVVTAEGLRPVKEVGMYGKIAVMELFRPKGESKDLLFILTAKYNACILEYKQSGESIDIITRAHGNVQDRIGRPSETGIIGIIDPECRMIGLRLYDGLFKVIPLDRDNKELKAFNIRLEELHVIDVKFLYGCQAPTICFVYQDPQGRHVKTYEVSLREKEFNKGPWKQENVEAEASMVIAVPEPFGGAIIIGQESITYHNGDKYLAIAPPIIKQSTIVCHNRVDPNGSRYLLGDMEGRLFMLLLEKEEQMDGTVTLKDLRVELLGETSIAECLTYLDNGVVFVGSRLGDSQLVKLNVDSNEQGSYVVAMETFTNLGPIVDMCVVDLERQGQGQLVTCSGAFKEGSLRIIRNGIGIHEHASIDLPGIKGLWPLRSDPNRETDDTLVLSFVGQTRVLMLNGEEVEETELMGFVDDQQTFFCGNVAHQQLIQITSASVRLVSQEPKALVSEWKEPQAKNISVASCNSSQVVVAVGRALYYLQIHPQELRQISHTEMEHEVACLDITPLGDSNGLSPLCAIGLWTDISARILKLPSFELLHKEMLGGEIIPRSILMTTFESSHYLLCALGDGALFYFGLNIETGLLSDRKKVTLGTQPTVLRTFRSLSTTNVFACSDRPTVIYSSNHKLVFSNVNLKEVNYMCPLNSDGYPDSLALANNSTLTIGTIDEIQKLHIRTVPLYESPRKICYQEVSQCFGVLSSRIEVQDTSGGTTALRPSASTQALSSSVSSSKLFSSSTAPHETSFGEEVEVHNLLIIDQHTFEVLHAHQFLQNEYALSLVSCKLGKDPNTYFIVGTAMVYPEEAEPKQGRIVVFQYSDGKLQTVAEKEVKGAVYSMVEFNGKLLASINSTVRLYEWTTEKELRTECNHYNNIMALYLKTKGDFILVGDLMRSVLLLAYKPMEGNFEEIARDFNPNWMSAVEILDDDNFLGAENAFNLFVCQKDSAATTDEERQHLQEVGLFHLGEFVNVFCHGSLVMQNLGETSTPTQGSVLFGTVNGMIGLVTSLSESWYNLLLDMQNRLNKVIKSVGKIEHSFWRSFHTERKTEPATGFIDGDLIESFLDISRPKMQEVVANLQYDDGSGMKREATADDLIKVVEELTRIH
UniProt Q16531, whole entry partner: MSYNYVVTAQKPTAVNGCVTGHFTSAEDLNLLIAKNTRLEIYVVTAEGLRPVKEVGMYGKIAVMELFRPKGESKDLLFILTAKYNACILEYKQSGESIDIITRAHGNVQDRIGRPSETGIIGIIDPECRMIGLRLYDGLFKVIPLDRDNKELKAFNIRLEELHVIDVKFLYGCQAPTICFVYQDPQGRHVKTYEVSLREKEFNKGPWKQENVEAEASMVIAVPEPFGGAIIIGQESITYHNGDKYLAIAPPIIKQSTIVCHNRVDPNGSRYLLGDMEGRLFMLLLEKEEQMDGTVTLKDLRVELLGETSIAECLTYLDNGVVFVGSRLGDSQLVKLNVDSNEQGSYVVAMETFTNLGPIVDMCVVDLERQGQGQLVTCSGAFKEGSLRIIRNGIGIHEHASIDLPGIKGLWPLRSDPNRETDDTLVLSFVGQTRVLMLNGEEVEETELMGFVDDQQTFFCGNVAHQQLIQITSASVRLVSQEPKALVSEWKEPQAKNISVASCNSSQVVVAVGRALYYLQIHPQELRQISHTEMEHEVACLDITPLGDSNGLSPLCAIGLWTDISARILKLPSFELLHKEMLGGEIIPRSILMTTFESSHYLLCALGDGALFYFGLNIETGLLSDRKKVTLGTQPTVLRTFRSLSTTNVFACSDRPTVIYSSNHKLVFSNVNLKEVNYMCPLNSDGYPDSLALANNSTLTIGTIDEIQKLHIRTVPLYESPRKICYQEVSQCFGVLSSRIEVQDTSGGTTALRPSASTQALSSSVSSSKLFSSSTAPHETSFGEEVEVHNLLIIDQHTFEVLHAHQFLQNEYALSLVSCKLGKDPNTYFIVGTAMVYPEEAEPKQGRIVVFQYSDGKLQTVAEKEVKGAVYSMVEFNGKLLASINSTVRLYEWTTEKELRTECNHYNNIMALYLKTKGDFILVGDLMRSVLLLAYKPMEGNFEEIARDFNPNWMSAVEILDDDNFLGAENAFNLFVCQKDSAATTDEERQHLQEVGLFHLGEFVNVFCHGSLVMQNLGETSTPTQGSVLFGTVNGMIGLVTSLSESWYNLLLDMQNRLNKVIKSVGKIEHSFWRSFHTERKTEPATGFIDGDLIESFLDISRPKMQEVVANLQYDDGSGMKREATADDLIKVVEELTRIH

Columns and labels:
CRBN-DDB1 = CRBN-DDB1 (Homo sapiens (Human), UniProt Q96SW2); assay: Compound binding to CRBN by HTRF assay; conditions: read-out: HTRF CRBN EC50
NEK7 = NEK7 (Homo sapiens (Human), UniProt Q8TDX7+Q96SW2); assay: NEK7 NanoBiT degradation assay in Cal51 NEK7 NanoBiT cell line; conditions: Cal51 NEK7 NanoBiT cells, 24 hours

CC(C)(O)c1ccc(C(C)(C)C(=O)NCc2cc(Cl)c(C3CCC(=O)NC3=O)c(Cl)c2)nn1 (stereo not drawn) [Compound 203]
EC50 (CRBN-DDB1): 170 nM
EC50 (CRBN-DDB1; HTRF class, Cereblon binding): 100 to 1000 nM
NEK7 NanoBiT Dmax (NEK7): 68%
NanoBiT Dmax (NEK7; NEK7 degradation): B (B represents a DMAX value>50% and ≤75%)
DC50 (NEK7; read-out: NEK7 NanoBiT DC50): 87 nM
DC50 (NEK7; read-out: NanoBiT DC50, NEK7 degradation): < 100 nM
